Patent US9107926B2, “Mutant selectivity and combinations of a phosphoinositide 3-kinase inhibitor compound and chemotherapeutic agents for the treatment of cancer” (Genentech, Inc., priority 2012, dated 2015)

Protein sequences, listed by entry. Tags and fused reporters are not part of them.
UniProt P42336, whole entry: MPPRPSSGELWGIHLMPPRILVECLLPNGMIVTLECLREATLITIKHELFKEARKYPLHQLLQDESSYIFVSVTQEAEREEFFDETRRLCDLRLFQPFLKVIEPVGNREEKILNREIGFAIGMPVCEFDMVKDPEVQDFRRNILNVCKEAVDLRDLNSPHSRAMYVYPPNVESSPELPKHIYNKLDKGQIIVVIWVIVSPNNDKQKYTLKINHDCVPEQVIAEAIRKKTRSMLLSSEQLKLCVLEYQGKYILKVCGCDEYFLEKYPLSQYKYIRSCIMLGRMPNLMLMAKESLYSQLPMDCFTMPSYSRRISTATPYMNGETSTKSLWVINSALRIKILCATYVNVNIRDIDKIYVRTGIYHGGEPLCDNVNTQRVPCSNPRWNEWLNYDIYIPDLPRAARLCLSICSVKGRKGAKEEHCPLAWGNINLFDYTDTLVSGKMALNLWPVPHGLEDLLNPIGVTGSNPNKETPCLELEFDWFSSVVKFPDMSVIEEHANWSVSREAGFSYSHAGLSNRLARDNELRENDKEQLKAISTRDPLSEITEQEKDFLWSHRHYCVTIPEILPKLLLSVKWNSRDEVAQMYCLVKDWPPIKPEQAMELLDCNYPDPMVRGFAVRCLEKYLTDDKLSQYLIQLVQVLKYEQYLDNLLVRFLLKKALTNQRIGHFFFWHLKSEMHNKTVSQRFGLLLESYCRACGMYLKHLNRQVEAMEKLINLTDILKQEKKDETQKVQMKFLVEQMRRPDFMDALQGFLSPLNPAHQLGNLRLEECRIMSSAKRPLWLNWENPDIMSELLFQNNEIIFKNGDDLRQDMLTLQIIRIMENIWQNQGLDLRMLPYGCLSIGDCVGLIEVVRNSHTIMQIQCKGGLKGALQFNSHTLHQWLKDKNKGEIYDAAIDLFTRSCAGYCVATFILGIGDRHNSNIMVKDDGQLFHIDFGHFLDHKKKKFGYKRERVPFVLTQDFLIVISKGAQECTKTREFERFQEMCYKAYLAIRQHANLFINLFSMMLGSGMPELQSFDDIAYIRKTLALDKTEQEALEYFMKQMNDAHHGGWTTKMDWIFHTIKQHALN

Tests used:
KPL4 = test: CellTiter-Glo cell proliferation assay; assay type: cell-based; conditions: KPL4 with H1047R and D350N PIK3CA mutations
PI3K alpha = PI3K alpha (Homo sapiens, UniProt P42336); test: p110α (alpha) PI3K binding assay

Row | Molecule | effect on cell viability (KPL4) | Ki (PI3K alpha) [nM]
1 | Trastuzumab: recombinant DNA-derived humanized, IgG1 kappa, monoclonal antibody binding the extracellular domain of HER2 | did not have an effect on cell viability | –
2 | Cc1nc(-c2cn3c(n2)-c2ccc(-c4cnn(C(C)(C)C(N)=O)c4)cc2OCC3)n(C(C)C)n1 [GDC-0032, 2-(4-(2-(1-isopropyl-3-methyl-1H-1,2,4-triazol-5-yl)-5,6-dihydrobenzo[f]imidazo[1,2-d][1,4]oxazepin-9-yl)-1H-pyrazol-1-yl)-2-methylpropanamide] | – | 0.22
